# Measurements published in US20260115267A1, “METHODS OF USING ANTI-EGF ANTIBODIES TO AUGMENT THE ACTIVITY OF BRAF AND KRAS INHIBITORS” (In3Bio Ltd., priority 2021, published 2026).
# Assays:
# [1] = system: pEGFR(Tyr1068), pAKT(Ser473), pERK(Thr 202/Tyr 204) in HT29 cells; test: Western blot of total and phosphorylated EGFR, AKT, ERK in HT29 cells with EGF, 2 hours (FIG. 3); type: cell-based; conditions: HT29, presence of EGF, 0.05 μM
# Description: C in the first lane stands for a control, non-treated cell line sample. The second lane is the same control cell receiving EGF at 0.05 µM and in combination with EGF, cells were separately treated with antibody (anti-IN01 antibodies recognizing EGF), Cetuximab, Encorafenib, the combination antibody (anti-IN01) and Encorafenib, and the combination Cetuximab and Encorafenib.
# The effects of anti-IN01, alone and in combination with encorafenib was compared to cetuximab alone, encorafenib alone and a combination of cetuximab and encorafenib at a 0.05 μM concentration of each in HT29 cells in the presence of EGF for 2 hours. The changes of total and phosphorylated proteins that indicate cell viability were determined by Western blot in duplicate (FIG. 3) At this concentration, the there was some reduction in signal for pERK, pAKT compared to ERK and AKT for all combinations and inhibitors alone. […] C in the first lane stands for control, non-treated cell line sample. Second lane is same control cell receiving EGF
# HT29 cells = test: Emergence of resistance to encorafenib in HT29 cells (FIGS. 5-8); type: cell-based; conditions: antibody added to culture medium with encorafenib 10 μM; 0.1 and 1.0 ng/mL EGF; 90 days
# Description: FIGS. 5A-B are graphs that show the emergence of resistance to Encorafenib in the HT29 cell line across an incubation time of 3 weeks and measured by the percentage of cell viability. Cells were treated with 5 μM Encorafenib (FIG. 5A) or 10 μM Encorafenib (FIG. 5B) and incubated with EGF at 0.0 ng/mL, 0.1 ng/mL, Ing/mL, and 10 ng/mL. The percentage of positive wells having viable cells rose and leveled off during weeks 1-3, with higher percentages of positive wells associated with higher concentrations of EGF (FIG. 5A).
# FIGS. 6A-B are graphs that show the emergence of resistance to Encorafenib in the HT29 cell line across an incubation time of 15 weeks and measured by the percentage of cell viability. […]
# FIGS. 7A-B are graphs that show the emergence of resistance to Encorafenib in the HT29 cell line across an incubation time of 15 weeks and measured by the percentage of cell viability. […]
# FIGS. 8A-B are graphs that show the emergence of resistance to 10 μM Encorafenib in the HT29 cell line with an incubation time of 90 days and measured by the percentage of tumor cell-free wells. […]
# [2] = cited from earlier work
# [3] = system: pErk1/2, pAkt, EGFR, STAT3, AXL in EGFR-mut cells; conditions: cited from earlier work
# PC9 xenografts = conditions: cited from earlier work
# [4] = system: EGFR-wt, head and neck cancer cell lines, and subcutaneous tumors; conditions: cited from earlier work
substance,measurement,setting,value
Cetuximab: anti-EGFR monoclonal antibody,signal between EGFR and pEGFR,[1],most pronounced reduction in signal
same,emergence of resistant clones to encorafenib,HT29 cells,delay observed
same,objective response,[2]; patients with KRAS mutation,none
same,objective response,[2]; patients with wild-type KRAS tumor status,27 of 66
same,median overall survival,[2]; wild-type KRAS tumor status versus KRAS mutations,significantly longer
same,effect on EGFR downstream signaling,[3]; H3255 or DFCILU-011,relatively little effect
same,"ligand-induced EGFR, Erk1/2, and Akt phosphorylation",[3]; PC9 and H1975 cells,prevent
same,levels of total EGFR,"[3]; after 1 to 2 hours of incubation, PC9, H1975 or H3255",markedly decrease
same,enhancement of the effects of gefitinib,PC9 xenografts,failed to enhance
same,induction of apoptosis and tumor regression,[4],amplify

# Where two headings read alike, the source gives them in different places.
